Cneo AK release: Cryptococcus neoformans cell lysis inducers, primary screen, AK release luminescence, single concentration | C. neoformans lysis, adenylate kinase release luminescence, 4 h; normalised: neutral wells 0, clomiphene wells 100 | lysis activity, % at 15 µM | hit rate 0.2% among 360,000;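 active means mean lysis activity across replicates of at least 80%, whatever share of replicates individually reach that level; inactive means mean lysis activity below 80%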
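Assay system: Cryptococcus neoformans yeast cells / Dosing: single-point compound dose / Timing: 4 h at 37 °C static, read 1 h later / Measured by: luminescence of released adenylate kinase using an AK detection reagent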
DENV2 CPE: inhibitors of DENV2 cytopathic effect, primary screen, cell-based, plate reader, single concentration; DENV2-infected cells, cytopathic effect rescue; CPE inhibition, % at 9.99 µM; hit rate 1.7% among 350,000; AID 651640, 2012; in the data active means CPE inhibition above about 20%, passing the limit was not always enough; tested in BHK-21 cells;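 further: 0% = median of neutral control wells and 100% = median of positive control wells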
E-sel inducer: E-selectin induction in HUVECs, primary screen, imaging, HUVEC, immunofluorescence imaging, single point; P16581; normalized: neutral wells 0, TNF-alpha wells 100; activation, % at 7.58 µM; hit rate 0.37% among 260,000; AID 686992, 2013;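 active means mean E-selectin-positive cell signal at least 10% of the positive control, reached in at least 60% of replicates, without over 20% cell loss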
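System: HUVEC / Compound: single concentration / Signal: immunofluorescence imaging / Read-out: percent E-selectin-positive cells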
Yeast UUG start: modulators of yeast start codon fidelity, primary screen, whole organism, S. cerevisiae, single point, plate reader. S. cerevisiae UUG-firefly luciferase reporter, luminescence/redox ratio. activity score, % at 18.7 µM. 350,000 tested, 0.13% active;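 active = replicate mean at a twofold rise or more, about +100% in these data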;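 also: firefly luciferase made from a UUG start codon reports start codon fidelity; reporter light over untreated wells divided by growth signal over untreated wells; some hits fall short of that in this replicate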
Numbers without * were called inactive; · = no result given; ! = not active in a repeat. Hits are enriched below; roughly 1.8% of the tested compounds scored in any of these assays.

SMILES,Cneo AK release,DENV2 CPE,E-sel inducer,Yeast UUG start
O=C(NNC(=O)c1ccccc1F)c1ccco1,-5.0,-1.3,1.2,-9.3
Cn1c2ccccc2c(=O)c2cc(C#Cc3ccsc3)ccc21,-0.9,66.0*,0.1,5.5
COc1cccc(C(=O)CC(=O)C(=O)Nc2cccc([N+](=O)[O-])c2C)c1,-0.5,-5.2,0.1,-4.1
COc1ccc(C(=O)CC(=O)C(=O)Nc2cccc([N+](=O)[O-])c2C)cc1,·,29.9*,0.2,·
CCCC#Cc1cnc2c(c1)C(=O)N([C@@H](C)CO)C[C@H](C)[C@@H](CN(C)C(=O)c1cccc(F)c1)O2,-1.7,2.3,-0.2,4.9
CCCC#Cc1cnc2c(c1)C(=O)N([C@@H](C)CO)C[C@H](C)[C@H](CN(C)C(=O)c1cccc(F)c1)O2,-1.0,26.5*,0.3,0.4
COCC#Cc1cnc2c(c1)C(=O)N([C@H](C)CO)C[C@@H](C)[C@@H](CN(C)C(=O)Nc1ccc(OC)cc1)O2,97.4*,3.4,0.3,8.3
COCC#Cc1cnc2c(c1)C(=O)N([C@H](C)CO)C[C@H](C)[C@@H](CN(C)C(=O)Nc1ccc(OC)cc1)O2,-1.2,-2.0,-0.2,6.2
CCCC#Cc1cnc2c(c1)C(=O)N([C@@H](C)CO)C[C@H](C)[C@H](CN(C)C(=O)Nc1cccc(F)c1)O2,88.4*,-6.6,-0.3,28.2
CC(C)CC#Cc1cnc2c(c1)C(=O)N([C@@H](C)CO)C[C@@H](C)[C@@H](CN(C)C(=O)Cc1ccncc1)O2,-3.3,27.9*,0.2,-6.4

Brought forward from above: 5 entries, followed by the next part.
SMILES,Cneo AK release,DENV2 CPE,E-sel inducer,Yeast UUG start
CCCC#Cc1cnc2c(c1)C(=O)N([C@@H](C)CO)C[C@H](C)[C@H](CN(C)C(=O)c1cccc(F)c1)O2,-1.0,26.5*,0.3,0.4
COCC#Cc1cnc2c(c1)C(=O)N([C@H](C)CO)C[C@@H](C)[C@@H](CN(C)C(=O)Nc1ccc(OC)cc1)O2,97.4*,3.4,0.3,8.3
COCC#Cc1cnc2c(c1)C(=O)N([C@H](C)CO)C[C@H](C)[C@@H](CN(C)C(=O)Nc1ccc(OC)cc1)O2,-1.2,-2.0,-0.2,6.2
CCCC#Cc1cnc2c(c1)C(=O)N([C@@H](C)CO)C[C@H](C)[C@H](CN(C)C(=O)Nc1cccc(F)c1)O2,88.4*,-6.6,-0.3,28.2
CC(C)CC#Cc1cnc2c(c1)C(=O)N([C@@H](C)CO)C[C@@H](C)[C@@H](CN(C)C(=O)Cc1ccncc1)O2,-3.3,27.9*,0.2,-6.4
CCCC#Cc1cnc2c(c1)C(=O)N([C@H](C)CO)C[C@@H](C)[C@@H](CN(C)C(=O)Nc1cccc(F)c1)O2,0.8,4.0,0.0,29.2
CC(C)C#Cc1cnc2c(c1)C(=O)N([C@H](C)CO)C[C@H](C)[C@@H](CN(C)C(=O)Nc1ccccc1)O2,6.5,-6.4,0.0,6.2
CC(C)CC#Cc1cnc2c(c1)C(=O)N([C@H](C)CO)C[C@H](C)[C@H](CN(C)C(=O)c1cccnc1)O2,81.8*,-2.1,-0.1,18.0
CC(C)CC#Cc1cnc2c(c1)C(=O)N([C@@H](C)CO)C[C@@H](C)[C@H](CN(C)C(=O)c1cccnc1)O2,-1.5,-1.8,-0.4,5.6
CC(C)CC#Cc1cnc2c(c1)C(=O)N([C@@H](C)CO)C[C@@H](C)[C@@H](CN(C)C(=O)c1cccc(F)c1)O2,100.5*,-9.9,0.4,·
C[C@H](CO)N1C[C@H](C)[C@H](CN(C)C(=O)Nc2ccccc2)Oc2ncc(C#CC(C)(C)O)cc2C1=O,1.1,26.0*,0.1,17.6
C[C@H]1CN([C@@H](C)CO)C(=O)c2cc(C#CCN(C)C)cnc2O[C@H]1CN(C)C(=O)c1cccc(F)c1,3.0,33.7*,-0.1,-8.2
CNC[C@H]1Oc2ccc(N)cc2C(=O)N([C@H](C)CO)C[C@@H]1C,-3.0,1.3,·,-19.9
CO[C@@H]1CN(C)C(=O)c2cc(NC(=O)c3ccc4c(c3)OCO4)ccc2OC[C@@H](C)NC[C@@H]1C,-0.7,-4.9,8.8,-10.3
COc1ccc(NC(=O)N(C)C[C@H]2Oc3ccc(NS(=O)(=O)c4ccccc4)cc3C(=O)N([C@H](C)CO)C[C@H]2C)cc1,2.0,3.6,·,1.8
COc1ccc(S(=O)(=O)Nc2ccc3c(c2)C(=O)N([C@@H](C)CO)C[C@@H](C)[C@H](CN(C)C(=O)Nc2ccccc2)O3)cc1,-2.9,-0.2,0.0,5.4
COc1ccc(NC(=O)N(C)C[C@H]2Oc3ccc(NS(=O)(=O)c4ccccc4)cc3C(=O)N([C@H](C)CO)C[C@@H]2C)cc1,0.1,29.1*,-0.1,-11.8
COc1ccc(S(=O)(=O)Nc2ccc3c(c2)C(=O)N([C@H](C)CO)C[C@@H](C)[C@@H](CN(C)C(=O)Nc2ccccc2)O3)cc1,82.8*,-2.5,0.0,14.0
COc1ccc(C(C)(O)c2nc(-c3ccccc3C)cs2)cc1 (centres undefined),0.6,8.5,-0.9,-5.9
Cc1ccccc1-c1csc(C(C)(O)c2ccccc2)n1 (centres undefined),2.7,31.3*,0.0,-21.0
CS(=O)(=O)N1CCc2cc(S(=O)(=O)Nc3ccc4c(c3)OCCO4)ccc21,-4.5,-9.4,·,2.2
CS(=O)(=O)N1CCc2cc(C(=O)NC3CC3)ccc21,·,2.1,27.2*,·
CS(=O)(=O)N1CCc2cc(C(=O)N3CCN(c4ccccc4)CC3)ccc21,-0.4,23.1*,-0.1,8.7
CS(=O)(=O)N1CCc2cc(S(=O)(=O)NCCNS(=O)(=O)c3ccc4c(c3)CCN4S(C)(=O)=O)ccc21,2.9,4.9,52.6*,-3.0
C[C@H](O)C#Cc1cnc2c(c1)C(=O)N([C@H](C)CO)C[C@H](C)[C@H](CN(C)C(=O)Cc1ccccn1)O2,-1.8,2.5,0.3,13.4
COCC(=O)N(C)C[C@@H]1Oc2ncc(C#C[C@H](C)O)cc2C(=O)N([C@@H](C)CO)C[C@H]1C,16.1,17.5,-0.9,-1.2
C[C@H]1CN([C@@H](C)CO)S(=O)(=O)c2ccc(C#Cc3ccccc3)cc2O[C@@H]1CN(C)S(=O)(=O)c1cn(C)cn1,5.1,34.1*,0.7,14.7
C[C@@H]1CN([C@@H](C)CO)S(=O)(=O)c2ccc(Br)cc2O[C@@H]1CN(C)S(=O)(=O)c1cn(C)cn1,0.3,23.6*!,-5.5,-17.5
Clc1ccc(-c2csc(-c3cccnc3)n2)s1,-1.6,51.0*,0.0,-6.0
Fc1ccccc1-c1csc(-c2cccnc2)n1,-2.1,5.2,1.0,-8.3
CC(C)(NC(=O)c1ccccc1)c1nc2ccccc2s1,-0.7,109.1*,0.1,0.0
C[C@@H]1CN([C@@H](C)CO)C(=O)Cc2cc(NC(=O)CCN3CCOCC3)ccc2O[C@H]1CN(C)C,1.1,-6.5,·,2.4
CC1=C([C@H](O)CCc2ccccc2)[C@H](CO)n2c(=O)n(-c3ccccc3)c(=O)n2C1,-5.8,36.0*,·,-3.2
CCCC[C@@H](O)C1=C(C)Cn2c(=O)n(-c3ccccc3)c(=O)n2[C@H]1CO,29.7,-7.5,·,·
O=C(OCC(=O)N1CCOCC1)c1cc(=O)[nH]c2ccccc12,0.7,27.9*,-0.1,-9.7
Cc1nnc(SCC(=O)N(CC(C)C)c2c(N)n(Cc3ccccc3)c(=O)[nH]c2=O)n1N,1.3,78.5*,·,-22.8
Cc1ccsc1C(=O)OCC(=O)N(C)c1c(N)n(Cc2ccccc2)c(=O)[nH]c1=O,3.2,-2.8,-0.2,-14.5
CCN(C(=O)COC(=O)c1cc(=O)[nH]c2ccccc12)c1c(N)n(Cc2ccccc2)c(=O)[nH]c1=O,-0.5,65.3*,-1.6,18.5
Cc1ccc(C(=O)OCC(=O)N(C)c2c(N)n(Cc3ccccc3)c(=O)[nH]c2=O)s1,-0.4,36.3*,-0.4,-25.8
O=C(COC(=O)c1cc(=O)[nH]c2ccccc12)c1ccccc1,-1.2,-4.4,-1.4,-19.7
CC(C)CN(C(=O)CSc1nnc(-c2cccs2)n1N)c1c(N)n(Cc2ccccc2)c(=O)[nH]c1=O,·,-2.2,2.1,·
